Data published in PubChem BioAssay AID624126 (The Scripps Research Institute Molecular Screening Center, 2012).
The list shows a part of the results, in another mix than the full data. Active and inactive are the calls of the source.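 The calls were made as follows: active = activation above its plate's cutoff, the mean activation of sample wells plus 3 SD; inactive = the rest.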

By UniProt entry, the sequences of proteins in these tests, tags left out.
UniProt P08173, whole entry: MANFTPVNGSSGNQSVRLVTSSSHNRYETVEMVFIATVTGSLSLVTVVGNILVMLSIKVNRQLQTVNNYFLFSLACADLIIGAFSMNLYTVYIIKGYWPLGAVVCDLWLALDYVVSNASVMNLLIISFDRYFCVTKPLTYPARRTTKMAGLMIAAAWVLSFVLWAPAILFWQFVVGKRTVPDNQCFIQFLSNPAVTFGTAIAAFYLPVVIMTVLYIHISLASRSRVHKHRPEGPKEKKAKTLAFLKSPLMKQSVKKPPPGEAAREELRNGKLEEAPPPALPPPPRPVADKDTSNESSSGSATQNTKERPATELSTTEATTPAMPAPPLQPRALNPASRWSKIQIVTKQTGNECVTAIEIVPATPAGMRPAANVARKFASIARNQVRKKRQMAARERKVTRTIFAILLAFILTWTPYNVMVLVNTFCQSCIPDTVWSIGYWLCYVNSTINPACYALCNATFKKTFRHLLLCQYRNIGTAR

molecular target: Muscarinic acetylcholine receptor M4 (Homo sapiens) (UniProt P08173); assay: CHRM4 PAMs potentiating acetylcholine calcium signal – CHO-K1 cells, Fluo-8 calcium fluorescence, primary screen (AID 624126); details: CHO-K1 hM4/Gqi5, Fluo-8 calcium fluorescence, ACh EC20; at 3 µM; hits give high values; 0% = ACh EC20, 100% = maximal ACh

Row | Structure (SMILES) | activation
1 | O=C(O)c1cccc(Nc2c([N+](=O)[O-])cc([N+](=O)[O-])cc2[N+](=O)[O-])c1 | inactive: -4.54%
2 | CC1=NCCc2c1[nH]c1ccccc21.O=[N+]([O-])c1cc([N+](=O)[O-])c(O)c([N+](=O)[O-])c1 | inactive: 3.41%
3 | COc1ccccc1OP(C)(=O)Nc1cccc(Br)c1 (centres undefined) | inactive: -3.56%
4 | COc1cc(C(=O)NCC2(N3CCOCC3)CCCCC2)cc(Cl)c1OC(C)C | inactive: -4.67%
5 | CCOC(=O)c1ccc(NP(C)(=O)Oc2cc(C)cc(C)c2)cc1 (centres undefined) | inactive: 0.17%
6 | Cc1cc(C)cc(OP(C)(=O)Nc2ccc(C)cc2C)c1 (centres undefined) | inactive: 5.06%
7 | Cc1ccc(C)c(NP(C)(=O)Oc2ccccc2)c1 (centres undefined) | inactive: 4.54%
8 | CP(=O)(Nc1cccc(Br)c1)Oc1ccccc1 (centres undefined) | inactive: -1.6%
9 | Cc1cc(C)cc(OP(C)(=O)Nc2ccccn2)c1 (centres undefined) | inactive: 3.63%
10 | O=[N+]([O-])c1cc([N+](=O)[O-])c(-n2nnc3ccccc32)c([N+](=O)[O-])c1 | inactive: 5.87%
11 | CN(Cc1cccnc1)C(=O)COc1ccc(Cl)c(Cl)c1.O=[N+]([O-])c1cc([N+](=O)[O-])c(O)c([N+](=O)[O-])c1 | inactive: 9.13%
12 | O=[N+]([O-])c1cc([N+](=O)[O-])c(-c2cnn(-c3ccccc3)c2)c([N+](=O)[O-])c1 | inactive: 7.62%
13 | Cc1nc2ccc3ccccc3c2s1.O=[N+]([O-])c1cc([N+](=O)[O-])c(O)c([N+](=O)[O-])c1 | inactive: 3.51%
14 | CCOC(=O)C(CC)C1=NC(C)(C)Cc2ccccc21.O=[N+]([O-])c1cc([N+](=O)[O-])c(O)c([N+](=O)[O-])c1 (centres undefined) | inactive: -3.65%
15 | O=[N+]([O-])c1cc([N+](=O)[O-])c(Nc2nnnn2CCO)c([N+](=O)[O-])c1 | inactive: 1.66%
16 | CC1=C2N=C(C=C3N=C(C(C)=C4[N-][C@@](C)([C@@H]5N=C1[C@](C)(CCC(=O)NC[C@@H](C)OP(=O)([O-])O[C@H]1[C@@H](O)[C@@H](n6cnc7cc(C)c(C)cc76)O[C@@H]1CO)[C@H]5CC(N)=O)[C@@](C)(CC(N)=O)[C@@H]4CCC(N)=O)[C@@](C)(CC(N)=O)[C@@H]3CCC(N)=O)C(C)(C)[C@@H]2CCC(N)=O.[C-]#N.[Co+3] | inactive: 3.83%
17 | CN(C)C1(CNC(=O)c2ccc(S(C)(=O)=O)cc2)CCCCC1 | inactive: 4.14%
18 | CN1CCCCC1COC(=O)C1(O)c2ccccc2CCc2ccccc21 (centres undefined) | inactive: -14.9%
19 | COc1ccccc1OP(C)(=O)Nc1c(C)cccc1C (centres undefined) | inactive: 9.11%
20 | COc1ccc(-c2ccccn2)cc1.O=[N+]([O-])c1cc([N+](=O)[O-])c(O)c([N+](=O)[O-])c1 | inactive: 5.86%
21 | CP(=O)(Nc1ccc(SC(F)(F)F)cc1)Oc1ccccc1 (centres undefined) | inactive: -5.14%
22 | CCCOc1ccc(NP(C)(=O)Oc2ccc(Cl)cc2)cc1 (centres undefined) | inactive: 7.5%
23 | CCCCOc1ccc(C(=O)NCC2(N3CCCCC3)CCCCC2)cc1OC | inactive: -1.85%
24 | CP(=S)(Nn1cnnc1)Oc1ccccc1 (centres undefined) | inactive: 9.68%
25 | CP(=O)(Nc1ccccc1Br)Oc1ccccc1 (centres undefined) | inactive: 6.87%
26 | COc1ccccc1OP(C)(=O)Nc1ccccc1 (centres undefined) | inactive: 5.6%
27 | CP(=O)(Oc1ccccc1)OC(c1ccccc1)C(F)(F)F (centres undefined) | inactive: 0.48%

Row | Structure (SMILES) | activation
28 | CP(=O)(Nc1ccc(SC(F)(F)F)cc1)Oc1ccc(Cl)cc1 (centres undefined) | inactive: -9.87%
29 | Cc1ccc(Nc2c([N+](=O)[O-])cc([N+](=O)[O-])cc2[N+](=O)[O-])cc1 | inactive: 2.98%
30 | Cc1cccc(C)c1OP(C)(=O)Nc1ccc(SC(F)(F)F)cc1 (centres undefined) | inactive: -5.49%
31 | Cc1cc(C)cc(OP(C)(=O)Nc2ccc(SC(F)(F)F)cc2)c1 (centres undefined) | inactive: 13.7%
32 | CCc1ccc(OP(C)(=O)N2CCN(c3ccc([N+](=O)[O-])cc3)CC2)cc1 (centres undefined) | inactive: -12%
33 | CP(=O)(NC(=O)Nc1ccccc1)Oc1ccccc1 (centres undefined) | inactive: -2.4%
34 | O=[N+]([O-])c1cc([N+](=O)[O-])c(O)c([N+](=O)[O-])c1.c1ccc(Oc2ccncc2)cc1 | inactive: -5.47%
35 | CCOC(=O)c1ccc(NP(C)(=O)Oc2ccc(OC)cc2)cc1 (centres undefined) | inactive: 3.36%
36 | CCOP(C)(=S)SCC(=O)NC(C)C(=O)O (centres undefined) | inactive: 8.76%
37 | CP(=O)(Nc1ccccn1)Oc1ccc(Cl)cc1 (centres undefined) | inactive: 5.66%
38 | CCN(CC)CCCOC(=O)C(O)(c1ccccc1)c1ccccc1 | inactive: -26.3%
39 | COc1ccccc1-c1ccccn1.O=[N+]([O-])c1cc([N+](=O)[O-])c(O)c([N+](=O)[O-])c1 | inactive: 20.5%
40 | COc1cc(C(=O)NCC2(N3CCOCC3)CCCCC2)ccc1OCC(C)C | inactive: 12.6%
41 | O=[N+]([O-])c1cc([N+](=O)[O-])c(Nc2cccnc2)c([N+](=O)[O-])c1 | inactive: -11.2%
42 | O=[N+]([O-])c1ccc2c(c1)C=Nc1ccccc1O2 | inactive: 5.73%
43 | Cc1cccc(C)c1OP(C)(N)=O (centres undefined) | inactive: 15.7%
44 | CC(C)(C)c1ccc(OP(C)(=O)Nc2ccc(SC(F)(F)F)cc2)cc1 (centres undefined) | inactive: -6.23%
45 | Cc1ccc(NP(C)(=O)Oc2ccccc2)c(C)c1 (centres undefined) | inactive: 2.95%
46 | COc1ccccc1OP(C)(=O)Nc1ccc(C)cc1 (centres undefined) | inactive: 1.25%
47 | CCOC(=O)c1ccc(NP(C)(=O)Oc2ccccc2)cc1 (centres undefined) | inactive: 3.87%
48 | Cc1cc(C)cc(OP(C)(N)=O)c1 (centres undefined) | inactive: 17.4%
49 | COc1ccc(OP(C)(=O)Nc2cccc(F)c2)cc1 (centres undefined) | inactive: -1.53%
50 | COc1ccccc1OP(C)(=O)Nc1cc(Cl)ccc1C (centres undefined) | inactive: -0.68%
51 | Cc1cc(C)cc(OP(C)(=O)Nc2cccc(C(F)(F)F)c2)c1 (centres undefined) | inactive: 1.7%
52 | O=C1C(O)=C([N+](=O)[O-])C(=O)C(O)=C1[N+](=O)[O-] | inactive: 2.1%
53 | COc1ccccc1OP(C)(=O)Nc1ccc(C)c(C)c1 (centres undefined) | inactive: -11.9%
54 | COc1ccc(OP(C)(=O)Nc2ccccc2Br)cc1 (centres undefined) | inactive: 18.4%
